T1: CENP-I^57–C (of the CENP-HI^57–CKM complex) (human, UniProt Q92674 57-756)
T1 construct: human CENP-I residues 57-756, codon optimised; also called CENP-I 57-756; not shown: His6, N-terminal, cleaved
T1 sequence (looked up): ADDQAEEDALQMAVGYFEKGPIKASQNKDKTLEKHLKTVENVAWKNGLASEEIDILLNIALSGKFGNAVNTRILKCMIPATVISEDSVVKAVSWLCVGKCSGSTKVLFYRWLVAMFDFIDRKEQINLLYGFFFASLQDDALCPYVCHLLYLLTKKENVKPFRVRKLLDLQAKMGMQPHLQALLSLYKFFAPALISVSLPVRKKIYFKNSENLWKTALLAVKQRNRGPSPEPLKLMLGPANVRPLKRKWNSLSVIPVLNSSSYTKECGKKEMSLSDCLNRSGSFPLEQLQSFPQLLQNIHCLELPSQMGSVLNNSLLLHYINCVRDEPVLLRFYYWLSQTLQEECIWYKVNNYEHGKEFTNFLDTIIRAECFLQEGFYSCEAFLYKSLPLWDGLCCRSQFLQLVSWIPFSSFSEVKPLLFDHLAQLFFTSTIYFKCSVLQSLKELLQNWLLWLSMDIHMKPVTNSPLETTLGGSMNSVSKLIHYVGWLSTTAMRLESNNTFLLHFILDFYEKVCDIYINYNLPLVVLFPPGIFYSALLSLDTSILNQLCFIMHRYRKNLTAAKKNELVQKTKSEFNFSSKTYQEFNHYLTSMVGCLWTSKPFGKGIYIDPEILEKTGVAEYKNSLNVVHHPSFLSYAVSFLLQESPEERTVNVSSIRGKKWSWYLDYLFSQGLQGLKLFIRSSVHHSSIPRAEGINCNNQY

T2: CENP-K (of the CENP-H/K complex, His tag cleaved) (human, UniProt Q9BS16 1-269)
T2 construct: human CENP-K, cDNA segment; source: Tnao38 insect cells, co-expressed with CENP-H, purified (Ni-NTA, TEV cleavage, Resource Q, Superdex200 SEC); not shown: His6, N-terminal, cleaved
T2 sequence (looked up): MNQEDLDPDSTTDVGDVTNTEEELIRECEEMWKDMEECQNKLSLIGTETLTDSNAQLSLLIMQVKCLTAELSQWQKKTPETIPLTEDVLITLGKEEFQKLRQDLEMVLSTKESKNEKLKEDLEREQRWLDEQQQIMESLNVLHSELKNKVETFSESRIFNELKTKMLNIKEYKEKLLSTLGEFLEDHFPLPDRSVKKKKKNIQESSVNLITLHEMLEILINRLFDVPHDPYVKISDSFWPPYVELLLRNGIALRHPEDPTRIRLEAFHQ


How the values were obtained:
[1] = target: T1, CENP-I^57–C (of the CENP-HI^57–CKM …); experiment: SEC; subunits co-expressed in insect cells, complex co-purified by the His tag of one subunit and ion exchange, then SEC on Superdex 200 in 150 mM NaCl; details: both partners purified
[2] = target: T2, CENP-K (of the CENP-H/K complex, His …); experiment: static light scattering; static light scattering analysis of the purified CENP-H/K complex; details: both partners purified

| Binder | stoichiometry N [1] | stoichiometry N [2] |
| --- | --- | --- |
| CENP-M (of the CENP-HI^57–CKM complex) (natural protein, human, UniProt Q9NSP4 1-180, looked up, human CENP-M isoform 1 (cDNA segment), 2nd MCS of the CENP-I vector; no tag is named; source: TnAo38 insect cells, co-expressed with CENP-H, CENP-K and CENP-I 57-756, co-purified (Talon, Resource S, Superdex 200)) MSVLRPLDKLPGLNTATILLVGTEDALLQQLADSMLKEDCASELKVHLAKSLPLPSSVNRPRIDLIVFVVNLHSKYSLQNTEESLRHVDASFFLGKVCFLATGAGRESHCSIHRHTVVKLAHTYQSPLLYCDLEVEGFRATMAQRLVRVLQICAGHVPGVSALNLLSLLRSSEGPSLEDL | 1 |  |
| CENP-H (natural protein, human, UniProt Q9H3R5 1-247, looked up, human CENP-H, cDNA segment, without any tag; source: Tnao38 insect cells (baculovirus), co-expressed with the other subunits; co-purified, or in lysate for the GST pull-down) MEEQPQMQDADEPADSGGEGRAGGPPQVAGAQAACSEDRMTLLLRLRAQTKQQLLEYKSMVDASEEKTPEQIMQEKQIEAKIEDLENEIEEVKVAFEIKKLALDRMRLSTALKKNLEKISRQSSVLMDNMKHLLELNKLIMKSQQESWDLEEKLLDIRKKRLQLKQASESKLLEIQTEKNKQKIDLDSMENSERIKIIRQNLQMEIKITTVIQHVFQNLILGSKVNWAEDPALKEIVLQLEKNVDMM | 1 | 1 |
| CENP-K (untagged, of the CENP-HI^57–CKM complex) (natural protein, human, UniProt Q9BS16 1-269, looked up, human CENP-K, untagged; source: TnAo38 insect cells, co-expressed with CENP-H, CENP-I 57-756 and CENP-M, co-purified (Talon, Resource S, Superdex 200)) MNQEDLDPDSTTDVGDVTNTEEELIRECEEMWKDMEECQNKLSLIGTETLTDSNAQLSLLIMQVKCLTAELSQWQKKTPETIPLTEDVLITLGKEEFQKLRQDLEMVLSTKESKNEKLKEDLEREQRWLDEQQQIMESLNVLHSELKNKVETFSESRIFNELKTKMLNIKEYKEKLLSTLGEFLEDHFPLPDRSVKKKKKNIQESSVNLITLHEMLEILINRLFDVPHDPYVKISDSFWPPYVELLLRNGIALRHPEDPTRIRLEAFHQ | 1 |  |
